Earlier results, collected in PMC10080908.

Amino acid sequences for entries named in this document (tags omitted). Residues count along the entry.
UniProt Q6ZNA4, 939-986: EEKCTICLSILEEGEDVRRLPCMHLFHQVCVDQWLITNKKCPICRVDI
UniProt P62837, whole entry: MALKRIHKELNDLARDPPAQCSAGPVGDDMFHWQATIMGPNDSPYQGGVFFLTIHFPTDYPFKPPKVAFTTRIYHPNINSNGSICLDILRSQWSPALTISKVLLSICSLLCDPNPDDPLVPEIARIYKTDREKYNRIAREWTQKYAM

Target: RNF111 RING (Homo sapiens) (UniProt Q6ZNA4)
Details: cited from earlier work

Substance: UBE2D2 (from UniProt P62837)
- Kd: 1 µM
